Measured values published in patent US20060079453A1, “Hla binding peptides and their uses” (priority 2002, published 2006).
Where two headings read alike, the source gives them in different places.

By UniProt entry, the sequences of proteins in these tests, tags left out. Residues count along the entry.
UniProt Q30154, 30-266: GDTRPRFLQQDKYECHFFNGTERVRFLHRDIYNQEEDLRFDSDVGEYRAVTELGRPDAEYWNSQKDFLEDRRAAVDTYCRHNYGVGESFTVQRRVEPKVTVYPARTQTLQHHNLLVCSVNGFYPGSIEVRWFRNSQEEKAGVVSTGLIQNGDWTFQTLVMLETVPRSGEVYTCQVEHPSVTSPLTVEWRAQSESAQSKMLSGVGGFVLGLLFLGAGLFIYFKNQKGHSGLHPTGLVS

How the values were obtained:
Assay in all cases: biochemical
Type in all cases: binding
HLA-DR DRB1*0101 (DR1) = HLA-DR DRB1*0101 (DR1) (Homo sapiens, UniProt P01903+P01911, A100R/D57E/F55L/F60I/F76Y/I96L/L162R/M171V/P40L/Q125E/R42F/V115G/Y59C); settings: DRB1 *0101
HLA-DR DRB1*0401 (DR4) = HLA-DR DRB1*0401 (DR4) (Homo sapiens, UniProt P01903+P01911, A100K/A169T/F76Y/I96L/K127E/L162R/M171V/N62H/P40V/Q125Y/R42H/S133A/S149N/S66Y/V115G/V209L/W38E)
HLA-DR DRB1*0405 (DR4) = HLA-DR DRB1*0405 (DR4) (Homo sapiens, UniProt P01903+P01911, A100R/A169T/D86S/F76Y/I96L/K127E/L162R/M171V/N62H/P40V/Q125Y/R42H/S133A/S149N/S66Y/V115G/V209L/W38E); settings: DRB1 *0405
HLA-DR DRB1*0802 (DR8) = HLA-DR DRB1*0802 (DR8) (Homo sapiens, UniProt P01903+P01911, A100R/A103L/A169T/F76Y/H45Y/I96F/K41T/L162R/M171V/P40S/Q125H/Q178H/Q39Y/Q99D/R218S/R42G/S66Y/V115G/W38E)
HLA-DR DRB1*0901 (DR9) = HLA-DR DRB1*0901 (DR9) (Homo sapiens, UniProt P01903+P01911, A100R/A103E/D57H/D86V/F55Y/F60I/F76Y/I96F/K127E/L162R/M171V/P40D/Q125H/Q99R/R33Q/R42F/S133A/S66N/T210M/V115G/W38K/Y107V/Y59G/Y89S); settings: DRB1 *0901
HLA-DR DRB1*1101 (DR11) = HLA-DR DRB1*1101 (DR11) (Homo sapiens, UniProt P01903+P01911, A100R/A169T/A87E/I96F/K41T/L162R/M171V/P40S/Q125H/Q178H/Q39Y/Q99D/R42S/S66Y/T262R/V115G/W38E); settings: DRB1 *1101
HLA-DR DRB1*1302 (DR13) = HLA-DR DRB1*1302 (DR13) (Homo sapiens, UniProt P01903+P01911, A100E/A169T/K41T/L162R/M171V/P40S/Q125H/Q178H/Q39Y/Q99D/R42S/S66N/T262R/V115G/W38E/Y61H); settings: DRBI *1302
HLA-DR DRB1*1501 (DR15) = HLA-DR DRB1*1501 (DR15) (Homo sapiens, UniProt P01903+P01911); settings: DRBI *1501
HLA-DR DRB4*0101 (DR53) = HLA-DR DRB4*0101 (DR53) (Homo sapiens, UniProt P01903+P13762, G164S); settings: DRB4 *0101
HLA-DR DRB5*0101 (DR51) = HLA-DR DRB5*0101 (DR51) (Homo sapiens, UniProt P01903+Q30154)
HLA-DR DRB1*0301 (DR3) = HLA-DR DRB1*0301 (DR3) (Homo sapiens, UniProt P01903+P01911, A100K/A102G/A103R/A169T/F55Y/I96L/K41T/L162R/M171V/P40S/Q125H/Q178H/Q39Y/R42S/S66N/T106N/T262R/W38E/Y61H)
HLA-DR DRB1*0701 (DR7) = HLA-DR DRB1*0701 (DR7) (Homo sapiens, UniProt P01903+P01911, A100R/A102G/A103Q/D57E/D86V/E43K/F76Y/K127E/L162R/M171V/P40G/Q125H/Q99D/R33Q/R42Y/R54Q/S133A/S66F/T210M/V115G/Y107V/Y59L/Y89S)

Row | Compound | IC50 (HLA-DR DRB1*0101 (DR1)) [µM] | IC50 (HLA-DR DRB1*0401 (DR4); DRB1 *0401) [µM] | IC50 (HLA-DR DRB1*0405 (DR4)) [µM] | IC50 (HLA-DR DRB1*0802 (DR8)) [µM] | IC50 (HLA-DR DRB1*0901 (DR9)) [µM] | IC50 (HLA-DR DRB1*1101 (DR11)) [µM] | IC50 (HLA-DR DRB1*1302 (DR13)) [µM] | IC50 (HLA-DR DRB1*1501 (DR15)) [µM] | IC50 (HLA-DR DRB4*0101 (DR53)) [µM] | IC50 (HLA-DR DRB5*0101 (DR51); DRB5 *0101) [µM] | IC50 (HLA-DR DRB1*0301 (DR3)) [µM] | IC50 (HLA-DR DRB1*0701 (DR7); DRB1 *0701) [µM] | IC50 (HLA-DR DRB1*0301 (DR3); read-out: DRB1 *0301) [µM] | IC50 (HLA-DR DRB1*0401 (DR4); read-out: DRB1 *0401) [µM] | IC50 (HLA-DR DRB5*0101 (DR51); read-out: DRB5 *0101) [µM] | IC50 (HLA-DR DRB1*0701 (DR7); read-out: DRB1 *0701) [µM] | IC50 (HLA-DR DRB1*0802 (DR8); read-out: DRB1 *0802) [µM]
1 | CC(C)C[C@H](NC(=O)[C@H](CC(C)C)NC(=O)[C@@H](N)CC(N)=O)C(=O)N[C@@H](C)C(=O)N[C@@H](CC(N)=O)C(=O)N[C@H](C(=O)N[C@@H](Cc1ccc(O)cc1)C(=O)N[C@@H](Cc1c[nH]cn1)C(=O)N[C@@H](CCC(N)=O)C(=O)N[C@@H](CCCNC(=N)N)C(=O)N[C@@H](CC(N)=O)C(=O)N[C@@H](Cc1c[nH]cn1)C(=O)N[C@@H](CC(C)C)C(=O)N[C@@H](CCCCN)C(=O)N[C@H](C(=O)O)[C@@H](C)O)C(C)C | 0.152 | 1.04 | 1.49 | 0.453 | 4.16 | 8.26 | 0.061 | 0.02 | 3.07 | 0.065 | – | – | – | – | – | – | –
2 | CC(C)C[C@H](NC(=O)[C@H](Cc1c[nH]cn1)NC(=O)[C@H](CC(N)=O)NC(=O)[C@H](CCCNC(=N)N)NC(=O)[C@H](CCC(N)=O)NC(=O)[C@H](Cc1c[nH]cn1)NC(=O)[C@H](Cc1ccc(O)cc1)NC(=O)[C@@H](N)C(C)C)C(=O)N[C@@H](CCCCN)C(=O)N[C@H](C(=O)N[C@H](C(=O)N[C@@H](CC(C)C)C(=O)N[C@@H](CCC(=O)O)C(=O)N[C@@H](CCC(=O)O)C(=O)N[C@@H](CCCCN)C(=O)O)C(C)C)[C@@H](C)O | 0.617 | 7.76 | – | 2.1 | – | 22 | – | 1.66 | 9.59 | 0.0047 | 3.13 | 6.18 | – | – | – | – | –
3 | WTTCQSIAFPSKTSASIGSL | – | – | – | – | – | – | – | – | – | – | – | – | 17.3 | 0.022 | 0.4 | – | –
4 | CC(C)C[C@H](NC(=O)[C@H](CCC(N)=O)NC(=O)[C@H](CC(C)C)NC(=O)[C@@H]1CCCN1C(=O)[C@H](CCC(=O)O)NC(=O)[C@H](Cc1c[nH]c2ccccc12)NC(=O)[C@@H]1CCCN1C(=O)[C@@H](N)CCC(N)=O)C(=O)N[C@@H](Cc1c[nH]cn1)C(=O)N[C@H](C(=O)N[C@@H](CC(=O)O)C(=O)N[C@@H](CCCCN)C(=O)N[C@@H](C)C(=O)N[C@H](C(=O)N[C@@H](CO)C(=O)O)C(C)C)C(C)C | – | 1.3 | 1.11 | – | – | – | 0.695 | – | – | – | 4.86 | – | – | – | – | – | –
5 | CC[C@H](C)[C@H](NC(=O)[C@H](CC(N)=O)NC(=O)[C@H](CCC(=O)O)NC(=O)[C@@H](N)CC(N)=O)C(=O)N[C@H](C(=O)N[C@H](C(=O)N1CCC[C@H]1C(=O)N[C@@H](CC(=O)O)C(=O)N[C@H](C(=O)N[C@@H](CCCCN)C(=O)N[C@H](C(=O)N[C@@H](CC(N)=O)C(=O)N[C@@H](Cc1ccccc1)C(=O)N[C@@H](Cc1ccc(O)cc1)C(=O)N[C@@H](C)C(=O)O)C(C)C)[C@@H](C)O)C(C)C)[C@@H](C)O | – | – | – | 1.85 | – | 17.9 | 9.34 | 22.6 | – | 12.2 | 0.0048 | – | – | – | – | – | –
6 | CC(C)C[C@H](NC(=O)[C@H](CCCNC(=N)N)NC(=O)CNC(=O)[C@H](CC(N)=O)NC(=O)[C@H](CC(C)C)NC(=O)[C@H](CCC(N)=O)NC(=O)[C@H](Cc1c[nH]c2ccccc12)NC(=O)[C@@H](N)CC(C)C)C(=O)N[C@@H](CCC(=O)O)C(=O)N[C@@H](Cc1ccc(O)cc1)C(=O)N[C@@H](CS)C(=O)N[C@@H](CC(C)C)C(=O)N[C@@H](CCCCN)C(=O)N[C@@H](CC(=O)O)C(=O)N[C@@H](CCCNC(=N)N)C(=O)O | 1.11 | 0.816 | 1.02 | – | 5.21 | 4.21 | 0.808 | 0.893 | 15.6 | – | 2.36 | 10.6 | – | – | – | – | –
7 | CC(C)C[C@H](NC(=O)[C@H](CCCCN)NC(=O)[C@H](CC(C)C)NC(=O)[C@@H](N)CCCCN)C(=O)N[C@@H](Cc1ccc(O)cc1)C(=O)N[C@H](C(=O)NCC(=O)N[C@@H](CCC(=O)O)C(=O)N[C@@H](C)C(=O)N[C@@H](CS)C(=O)N[C@@H](CCCNC(=N)N)C(=O)N[C@H](C(=O)NCC(=O)N[C@@H](CC(=O)O)C(=O)N[C@@H](CCCNC(=N)N)C(=O)O)[C@@H](C)O)[C@@H](C)O | – | 5.96 | – | 7.68 | – | – | 0.88 | 0.13 | 20.1 | 0.636 | 18.4 | 8.08 | – | – | – | – | –
8 | CC(C)C[C@H](NC(=O)[C@H](CCCCN)NC(=O)CNC(=O)[C@H](CCCNC(=N)N)NC(=O)[C@H](CC(C)C)NC(=O)[C@H](Cc1ccccc1)NC(=O)[C@H](CC(N)=O)NC(=O)[C@@H](N)CO)C(=O)N[C@@H](CCCCN)C(=O)N[C@@H](CC(C)C)C(=O)N[C@@H](Cc1ccc(O)cc1)C(=O)N[C@H](C(=O)NCC(=O)N[C@@H](CCC(=O)O)C(=O)N[C@@H](C)C(=O)O)[C@@H](C)O | – | 2.88 | 7.18 | – | 8.1 | – | 4.73 | 0.03 | 2.44 | 0.0057 | 9.58 | – | – | – | – | – | –
9 | CC[C@H](C)[C@H](NC(=O)[C@H](CCC(=O)O)NC(=O)[C@H](CCC(=O)O)NC(=O)[C@@H]1CCCN1C(=O)[C@@H](NC(=O)[C@H](CC(=O)O)NC(=O)[C@H](Cc1ccccc1)NC(=O)[C@H](CC(N)=O)NC(=O)[C@@H](N)CCCNC(=N)N)[C@@H](C)CC)C(=O)N[C@@H](CCCCN)C(=O)N[C@@H](CCC(N)=O)C(=O)N[C@@H](CC(C)C)C(=O)N[C@@H](CCC(N)=O)C(=O)N[C@@H](CCC(N)=O)C(=O)N[C@@H](Cc1ccccc1)C(=O)O | 6.97 | 18.1 | – | – | – | – | – | – | – | – | 26.3 | – | – | – | – | – | –
10 | TVSDGNGMNAWVAWRNRC | – | – | – | – | – | – | – | – | – | – | – | – | 18.4 | 1 | – | > 8.33 | –
11 | CC(C)C[C@H](NC(=O)[C@H](CO)NC(=O)[C@@H](NC(=O)[C@H](CCC(N)=O)NC(=O)[C@@H]1CCCN1C(=O)[C@H](CC(N)=O)NC(=O)[C@H](CCC(N)=O)NC(=O)[C@H](CC(C)C)NC(=O)[C@H](Cc1ccccc1)NC(=O)[C@@H](N)CO)[C@@H](C)O)C(=O)N[C@@H](CS)C(=O)N[C@@H](Cc1ccccc1)C(=O)N[C@@H](CO)C(=O)N[C@@H](CCC(=O)O)C(=O)N[C@@H](CO)C(=O)O | 0.595 | 6.38 | – | – | – | – | 0.19 | 6.51 | 21.7 | – | 8.62 | – | – | – | – | – | –
12 | LVNSSQPWEPLQLNV | – | – | – | – | – | – | – | – | – | – | – | – | 26.1 | – | – | 8.34 | 16.9
13 | CC[C@H](C)[C@H](NC(=O)[C@H](C)NC(=O)[C@H](CCC(=O)O)NC(=O)[C@@H](N)CCCCN)C(=O)N[C@@H](CO)C(=O)N1CCC[C@H]1C(=O)N1CCC[C@H]1C(=O)N[C@@H](CC(=O)O)C(=O)N[C@@H](C)C(=O)N[C@@H](C)C(=O)N[C@@H](CO)C(=O)N[C@@H](C)C(=O)N[C@@H](C)C(=O)N1CCC[C@H]1C(=O)N[C@@H](CC(C)C)C(=O)O | 15.5 | – | 28.8 | 6.39 | 5.73 | 0.601 | 9.27 | 1.2 | 2.99 | 0.31 | – | 6.66 | – | – | – | – | –
